Amino acid sequences for entries named in this document (tags omitted). Residues count along the entry.
UniProt P29597, 589-875 limits assumed: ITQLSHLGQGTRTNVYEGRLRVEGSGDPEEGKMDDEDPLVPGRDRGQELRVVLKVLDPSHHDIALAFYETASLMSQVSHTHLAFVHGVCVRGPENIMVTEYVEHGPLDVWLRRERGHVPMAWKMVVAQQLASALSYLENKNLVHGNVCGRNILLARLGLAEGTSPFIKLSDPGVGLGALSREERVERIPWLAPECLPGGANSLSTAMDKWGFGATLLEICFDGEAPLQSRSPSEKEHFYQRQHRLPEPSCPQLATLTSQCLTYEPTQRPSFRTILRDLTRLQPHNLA

In patent EP4834907A1, “HETEROCYCLIC COMPOUND, AND PHARMACEUTICAL COMPOSITION THEREOF AND USE THEREOF” (dated 2026):

Each compound was assayed against TYK2 JH2 pseudokinase (Homo sapiens, UniProt P29597) (assay: TYK2 JH2 in vitro enzyme binding experiment (TR-FRET tracer competition)). Conditions: read-out: TYK2 JH2 IC50 nM, TYK2 JH2 pseudokinase 0.5 nM, Tracer 1 nM.

Row | Structure (SMILES) | IC50 [nM]
1 | CNc1cc(Nc2ccc3oc4ccccc4n3c2=O)nn2c(C(=O)N[C@@H]3CC[C@H]3OC)cnc12 | < 10
2 | CNc1cc(Nc2cccc3c2oc2nc(C)c(C)nc23)nn2c(C(=O)NC3CCC3OC)cnc12 (stereo not drawn) | < 10
3 | CNc1cc(Nc2cccc3c2oc2nc(C)c(C)cc23)nn2c(C(=O)NC3CCC3OC)cnc12 (stereo not drawn) | < 10

The next lines start with the values.

Row | IC50 [nM] | Structure (SMILES)
4 | < 10 | CNc1cc(Nc2cccc3c2oc2cnc(C)nc23)nn2c(C(=O)NC3CCC3OC)cnc12 (stereo not drawn)
5 | < 10 | CNc1cc(Nc2cccc3c2oc2ccc(C(F)(F)F)nc23)nn2c(C(=O)NC3CCC3OC)cnc12 (stereo not drawn)
6 | < 10 | CNc1cc(Nc2cccc3c2oc2cccnc23)nn2c(C(=O)N[C@@H]3CC[C@H]3OC)cnc12
7 | < 10 | CNc1cc(Nc2cccc3c2oc2ccc(C)nc23)nn2c(C(=O)NC3CCC3OC)cnc12 (stereo not drawn)
8 | < 10 | CNc1cc(Nc2cccc3c2oc2cnc(C4CC4)nc23)nn2c(C(=O)NC3CCC3OC)cnc12 (stereo not drawn)
9 | < 10 | CNc1cc(Nc2cccc3c2oc2cc(F)cnc23)nn2c(C(=O)N[C@@H]3CC[C@H]3OC)cnc12
10 | < 10 | CNc1cc(Nc2cccc3c2oc2cnc(OC)nc23)nn2c(C(=O)N[C@@H]3CC[C@H]3OC)cnc12

These compounds were tested on Ba/F3-FL-TYK2-E957D cells (assay: Cell proliferation inhibition, CTG (CellTiter-Glo) luminescence assay). Conditions: read-out: Ba/F3-TYK2-E957D IC50 nM, 72 h incubation.

Row | Structure (SMILES) | IC50 [nM]
11 | CNc1cc(Nc2cccc3c2oc2ccccc23)nc2c(C(=O)N[C@@H]3COC[C@H]3OC)cnn12 | 325
12 | CNc1cc(Nc2ccc3oc4ccccc4n3c2=O)nn2c(C(=O)N[C@@H]3CC[C@H]3OC)cnc12 | 38.1
13 | CNc1cc(Nc2cccn3c2nc2cncnc23)nn2c(C(=O)N[C@@H]3CC[C@H]3OC)cnc12 | 0.4
14 | CNc1cc(Nc2cccc3c2C(=O)c2ccc(C)nc2-3)nn2c(C(=O)N[C@@H]3CC[C@H]3OC)cnc12 | 0.39
15 | CNc1cc(Nc2cccc3c2S(=O)(=O)c2ccccc2-3)nn2c(C(=O)N[C@@H]3CC[C@H]3OC)cnc12 | 5.18
16 | CNc1cc(Nc2cccc3c2oc2nc(C)c(C)nc23)nn2c(C(=O)NC3CCC3OC)cnc12 (stereo not drawn) | 0.09
17 | CNc1cc(Nc2ccc(=O)n3c2oc2ccccc23)nn2c(C(=O)N[C@@H]3CC[C@H]3OC)cnc12 | 210
18 | CNc1cc(Nc2cccc3c2oc2ccccc23)nc2c(C(=O)N[C@@H]3COC[C@H]3O)cnn12 | 107
19 | CNc1cc(Nc2cccc3c2C(=O)c2ccccc2-3)nn2c(C(=O)N[C@@H]3CC[C@H]3OC)cnc12 | 0.3
20 | CNc1cc(Nc2cccc3c2oc2ccccc23)nc2c(C(=O)N[C@@H]3C[C@@H]3F)cnn12 | 3.5
21 | CNc1cc(Nc2cccc3c2oc2ccccc23)nc2c(C(=O)NC3CCC3)cnn12 | 15.3
22 | CNc1cc(Nc2cccc3c2sc2ccccc23)nn2c(C(=O)N[C@@H]3CC[C@H]3OC)cnc12 | 10.9
23 | CNc1cc(Nc2cccc3c2oc2nn(C)cc23)nn2c(C(=O)N[C@@H]3CC[C@H]3OC)cnc12 | 0.28
24 | CNc1cc(Nc2ccnc3c2oc2ccccc23)nn2c(C(=O)N[C@@H]3C[C@@H]3F)cnc12 | 107
25 | CNc1cc(Nc2cccc3c2oc2nccnc23)nn2c(C(=O)N[C@@H]3CC[C@H]3OC)cnc12 | 1
26 | CNc1cc(Nc2cccc3c2oc2cnc(C#N)cc23)nn2c(C(=O)N[C@@H]3CC[C@H]3OC)cnc12 | 0.09
27 | CNc1cc(Nc2cccc3c2oc2nc(C)c(C)cc23)nn2c(C(=O)NC3CCC3OC)cnc12 (stereo not drawn) | 0.07
28 | CNc1cc(Nc2cccc3c2oc2cc(C(F)(F)F)cnc23)nn2c(C(=O)N[C@@H]3CC[C@H]3OC)cnc12 | 0.32
29 | CNc1cc(Nc2cccc3c2oc2ccccc23)nn2c(C(=O)NC3CCC3)cnc12 | 11.7
30 | CNc1cc(Nc2cccc3c2oc2ccccc23)nc2c(C(=O)NCC(C)(C)O)cnn12 | 135
31 | CNC(=O)c1nnc(NC(=O)C2CC2)cc1Nc1cccc(-c2ncn(C)n2)c1OC | 0.8

Row | Structure (SMILES) | IC50 [nM]
32 | CNc1cc(Nc2cccc3c2oc2ccccc23)nn2c(C(=O)N[C@@H]3C[C@@H]3F)cnc12 | 4
33 | CNc1cc(Nc2ccc3oc4cccnc4n3c2=O)nn2c(C(=O)N[C@@H]3CC[C@H]3OC)cnc12 | 74.8
34 | CNc1cc(Nc2cccc3c2C(=O)N2CCC(=O)C=C32)nn2c(C(=O)N[C@@H]3CC[C@H]3OC)cnc12 | 4.07
35 | CNc1cc(Nc2cccc3c2oc2ccccc23)nc2c(C(=O)NC3CC3)cnn12 | 8.1
36 | CNc1cc(Nc2cccn(-c3ccccn3)c2=O)nc2c(C(=O)N[C@@H]3CC[C@H]3OC)cnn12 | 3.1
37 | CNc1cc(Nc2cccc3c2oc2nccc(C)c23)nn2c(C(=O)NC3CCC3OC)cnc12 (stereo not drawn) | 0.56
38 | CNc1cc(Nc2cccc3c2oc2ccccc23)nc2c(C(=O)NC3CC34CCC4)cnn12 (stereo not drawn) | 106
39 | CNc1cc(Nc2cccc3c2C(=O)c2cccnc2-3)nn2c(C(=O)N[C@@H]3CC[C@H]3OC)cnc12 | 0.07
40 | CNc1cc(Nc2cccc3c2oc2ncc(C#N)cc23)nn2c(C(=O)N[C@@H]3CC[C@H]3OC)cnc12 | 0.07
41 | CNc1cc(Nc2cccc3c2oc2ccccc23)nc2c(C(=O)NC3CC34CC4)cnn12 (stereo not drawn) | 31.8
42 | CNc1cc(Nc2cccc3c2oc2ccccc23)nc2c(C(=O)N[C@@H]3CC[C@H]3OC)cnn12 | 2.4
43 | CNc1cc(Nc2cccc3c2oc2ccccc23)nc2c(C(=O)NCC(C)(C)CO)cnn12 | 6.8
44 | CNc1cc(Nc2cccc3c2oc2ccccc23)nc2c(C(=O)N[C@@H]3CCC[C@H]3O)cnn12 | 81.8
45 | CNc1cc(Nc2cccn3c2nc2ccc(C)nc23)nn2c(C(=O)N[C@@H]3CC[C@H]3OC)cnc12 | 0.39
46 | CNc1cc(Nc2cccc3c2oc2cc(=O)n(C)cc23)nn2c(C(=O)N[C@@H]3CC[C@H]3OC)cnc12 | 0.53
47 | CNc1cc(Nc2ccc3n(c2=O)Cc2ccccc2-3)nn2c(C(=O)N[C@@H]3CC[C@H]3OC)cnc12 | 87.2
48 | CNc1cc(Nc2ccnc3c2oc2ccccc23)nc2c(C(=O)N[C@@H]3C[C@@H]3F)cnn12 | 65.9
49 | CNc1cc(Nc2cncc3c2oc2ccc(C)nc23)nn2c(C(=O)N[C@@H]3CC[C@H]3OC)cnc12 | 6.21
50 | CNc1cc(Nc2cccc3c2oc2ccccc23)nc2c(C(=O)NC(C)C)cnn12 | 331
51 | CNc1cc(Nc2cccc3c2oc2ncc(C)cc23)nn2c(C(=O)N[C@@H]3CC[C@H]3OC)cnc12 | 0.11

Next, values leading:

Row | IC50 [nM] | Structure (SMILES)
52 | 0.06 | CNc1cc(Nc2cccc3c2oc2cnc(C)nc23)nn2c(C(=O)NC3CCC3OC)cnc12 (stereo not drawn)
53 | 0.22 | CNc1cc(Nc2cccc3c2oc2ccc(C(F)(F)F)nc23)nn2c(C(=O)NC3CCC3OC)cnc12 (stereo not drawn)
54 | 1.1 | CNc1cc(Nc2cccc3c2oc2ccccc23)nn2c(C(=O)N[C@@H]3CC[C@H]3OC)cnc12
55 | 0.26 | CNc1cc(Nc2cccc3c2oc2cccnc23)nn2c(C(=O)N[C@@H]3CC[C@H]3OC)cnc12
56 | 20.6 | CNc1cc(Nc2cccc3c2oc2c[nH]c(=O)nc23)nn2c(C(=O)N[C@@H]3CC[C@H]3OC)cnc12
57 | 0.05 | CNc1cc(Nc2cccc3c2oc2cnc(C)cc23)nn2c(C(=O)N[C@@H]3CC[C@H]3OC)cnc12
58 | 0.06 | CNc1cc(Nc2cccc3c2oc2ncc(F)cc23)nn2c(C(=O)N[C@@H]3CC[C@H]3OC)cnc12
59 | 0.12 | CNc1cc(Nc2cccc3c2oc2cnc(F)cc23)nn2c(C(=O)N[C@@H]3CC[C@H]3OC)cnc12
60 | 0.09 | CNc1cc(Nc2cccc3c2oc2ccc(C)nc23)nn2c(C(=O)NC3CCC3OC)cnc12 (stereo not drawn)
61 | 2.1 | CNc1cc(Nc2cccc3c2oc2ccnnc23)nn2c(C(=O)NC3CCC3OC)cnc12 (stereo not drawn)
62 | 0.18 | CNc1cc(Nc2cccc3c2oc2cnc(C4CC4)nc23)nn2c(C(=O)NC3CCC3OC)cnc12 (stereo not drawn)
63 | 0.32 | CNc1cc(Nc2cccc3c2oc2cc(C)cnc23)nn2c(C(=O)NC3CCC3OC)cnc12 (stereo not drawn)
64 | 0.3 | CNc1cc(Nc2cccc3c2oc2cncnc23)nn2c(C(=O)NC3CCC3OC)cnc12 (stereo not drawn)
65 | 0.18 | CNc1cc(Nc2cccc3c2oc2cc(F)cnc23)nn2c(C(=O)N[C@@H]3CC[C@H]3OC)cnc12
66 | 0.45 | CNc1cc(Nc2cccc3c2oc2c(C)ccnc23)nn2c(C(=O)NC3CCC3OC)cnc12 (stereo not drawn)
67 | 0.24 | CNc1cc(Nc2cccc3c2oc2cnc(OC)nc23)nn2c(C(=O)N[C@@H]3CC[C@H]3OC)cnc12
68 | 0.27 | CNc1cc(Nc2cccc3c2oc2ccc(F)nc23)nn2c(C(=O)N[C@@H]3CC[C@H]3OC)cnc12
69 | 0.22 | CNc1cc(Nc2cccc3c2oc2cnc(Cl)cc23)nn2c(C(=O)N[C@@H]3CC[C@H]3OC)cnc12
